PubChem BioAssay (Tox21)
Several values for one entry are separate records, joined by “and”; a condition that tells them apart may be missing. Identical values can stand only once. The list shows a part of the results, in another mix than the full data. Records with an inconclusive call do not appear. Activity calls are given as the source filed them. Unless noted, the call rests on the fitted dose curve.

Amino acid sequences for entries named in this document (tags omitted).
UniProt P30968, whole entry: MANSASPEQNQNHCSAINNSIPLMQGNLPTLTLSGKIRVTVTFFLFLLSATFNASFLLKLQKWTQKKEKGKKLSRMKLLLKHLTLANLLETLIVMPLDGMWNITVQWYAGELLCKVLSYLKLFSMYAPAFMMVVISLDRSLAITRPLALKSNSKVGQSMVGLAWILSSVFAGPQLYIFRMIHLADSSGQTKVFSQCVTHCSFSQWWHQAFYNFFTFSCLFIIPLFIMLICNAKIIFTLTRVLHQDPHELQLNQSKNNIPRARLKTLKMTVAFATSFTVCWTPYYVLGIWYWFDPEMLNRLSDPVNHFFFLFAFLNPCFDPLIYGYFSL
UniProt Q969F8, whole entry: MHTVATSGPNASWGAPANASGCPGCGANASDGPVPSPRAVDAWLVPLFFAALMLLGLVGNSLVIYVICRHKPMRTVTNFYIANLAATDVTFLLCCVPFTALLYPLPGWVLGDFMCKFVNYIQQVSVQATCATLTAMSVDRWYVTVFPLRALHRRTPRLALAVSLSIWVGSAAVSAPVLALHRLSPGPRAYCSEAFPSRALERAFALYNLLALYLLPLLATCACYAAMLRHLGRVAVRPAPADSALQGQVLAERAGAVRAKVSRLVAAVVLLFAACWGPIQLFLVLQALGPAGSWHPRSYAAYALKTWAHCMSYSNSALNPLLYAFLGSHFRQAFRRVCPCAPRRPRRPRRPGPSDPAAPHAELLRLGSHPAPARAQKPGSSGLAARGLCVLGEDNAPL
UniProt P28223, whole entry: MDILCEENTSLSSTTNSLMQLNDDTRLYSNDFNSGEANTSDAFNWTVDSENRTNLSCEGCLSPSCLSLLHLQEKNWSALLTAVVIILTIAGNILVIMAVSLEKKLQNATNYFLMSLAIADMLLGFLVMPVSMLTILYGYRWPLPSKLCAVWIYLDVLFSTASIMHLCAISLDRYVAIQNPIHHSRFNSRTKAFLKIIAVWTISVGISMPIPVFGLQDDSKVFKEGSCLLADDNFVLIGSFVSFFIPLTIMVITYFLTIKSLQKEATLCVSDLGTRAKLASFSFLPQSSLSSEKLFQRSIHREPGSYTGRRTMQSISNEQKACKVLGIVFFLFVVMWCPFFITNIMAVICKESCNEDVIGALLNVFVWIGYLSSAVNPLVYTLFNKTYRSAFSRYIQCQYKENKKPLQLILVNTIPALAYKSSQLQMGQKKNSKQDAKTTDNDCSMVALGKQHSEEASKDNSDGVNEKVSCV
UniProt P11229, whole entry: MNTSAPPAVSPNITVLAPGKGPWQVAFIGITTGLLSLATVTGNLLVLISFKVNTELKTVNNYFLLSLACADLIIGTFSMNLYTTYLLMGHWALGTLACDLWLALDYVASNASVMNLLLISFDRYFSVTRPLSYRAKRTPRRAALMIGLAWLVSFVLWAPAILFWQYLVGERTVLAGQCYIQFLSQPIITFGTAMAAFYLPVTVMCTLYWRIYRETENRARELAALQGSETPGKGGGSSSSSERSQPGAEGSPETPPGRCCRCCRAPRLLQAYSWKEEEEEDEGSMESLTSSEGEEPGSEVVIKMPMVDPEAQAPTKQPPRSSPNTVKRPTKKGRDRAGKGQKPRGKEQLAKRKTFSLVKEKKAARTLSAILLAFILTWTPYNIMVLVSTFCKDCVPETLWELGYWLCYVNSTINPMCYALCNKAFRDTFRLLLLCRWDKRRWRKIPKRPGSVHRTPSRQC
UniProt P07550, whole entry: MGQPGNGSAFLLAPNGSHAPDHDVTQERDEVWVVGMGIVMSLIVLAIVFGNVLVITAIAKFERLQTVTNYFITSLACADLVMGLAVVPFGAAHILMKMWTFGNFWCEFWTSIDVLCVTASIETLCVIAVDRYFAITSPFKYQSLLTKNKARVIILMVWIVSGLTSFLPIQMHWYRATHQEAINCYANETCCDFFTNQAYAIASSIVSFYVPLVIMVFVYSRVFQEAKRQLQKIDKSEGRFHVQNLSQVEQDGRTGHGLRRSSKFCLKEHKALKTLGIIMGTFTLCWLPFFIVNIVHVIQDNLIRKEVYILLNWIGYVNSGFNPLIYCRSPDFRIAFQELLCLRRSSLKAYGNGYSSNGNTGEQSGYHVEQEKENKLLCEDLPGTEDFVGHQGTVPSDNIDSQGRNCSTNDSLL
UniProt P14416, whole entry: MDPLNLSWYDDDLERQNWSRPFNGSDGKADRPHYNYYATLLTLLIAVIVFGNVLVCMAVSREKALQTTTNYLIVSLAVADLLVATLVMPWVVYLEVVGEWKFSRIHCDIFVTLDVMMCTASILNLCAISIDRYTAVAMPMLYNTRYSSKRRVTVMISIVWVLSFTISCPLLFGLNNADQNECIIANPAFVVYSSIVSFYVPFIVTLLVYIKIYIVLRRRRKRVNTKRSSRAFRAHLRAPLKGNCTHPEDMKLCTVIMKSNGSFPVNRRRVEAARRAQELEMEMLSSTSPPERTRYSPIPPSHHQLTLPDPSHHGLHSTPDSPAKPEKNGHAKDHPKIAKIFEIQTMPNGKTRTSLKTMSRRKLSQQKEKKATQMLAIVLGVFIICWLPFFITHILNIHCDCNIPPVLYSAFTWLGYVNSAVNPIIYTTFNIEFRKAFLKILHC

Tests used:
[1] = Nuclear factor erythroid 2-related factor 2/antioxidant responsive element (Nrf2/ARE) small molecule agonists: qHTS cell viability counter screen in human keratinocytes (AID 1919968; active means well fitted curve in the direction sought with a large enough effect in the repeat runs; an effect the other way counts as inactive or inconclusive; further: nearly all actives have a fitted effect of over 55% in size); details: KeratinoSens HaCaT ARE cells viability, CellTiter-Fluor, 24 h; at 92.4 µM (top of the series) unless noted
Procedure, shortened: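 KeratinoSens HaCaT cells, 1,500/well, preincubated 5 h, then exposed to compounds in DMSO for 23 h at 37 C/5% CO2. Viability read as CellTiter-Fluor fluorescence after 1 h, in the same wells as the ARE-luciferase read.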

[2] = Nuclear factor erythroid 2-related factor 2/antioxidant responsive element (Nrf2/ARE) small molecule agonists: luciferase reporter gene qHTS assay in human keratinocytes (AID 1919969); details: KeratinoSens HaCaT ARE-luciferase, luminescence, 24 h; at 92.4 µM (top of the series) unless noted; further: nearly all actives have a fitted effect of over 35% in size
Excerpt: National Center for Advancing Translational Sciences [NCATS]
Division of Preclinical Innovation [DPI]
U.S. Environmental Protection Agency [EPA]
National Institutes of Environmental Health Sciences [NIEHS]
National Toxicology Program [NTP]
U.S. Food and Drug Administration [FDA]
Oxidative stress has been implicated in the pathogenesis of a variety of diseases ranging from cancer to neurodegeneration. The antioxidant response element (ARE) signaling pathway plays an important role in the amelioration of oxidative stress. The KeratinoSens (Givaudan, Switzerland) is an in vitro test method which quantifies luciferase induction as a measure of activation of Keap1-Nrf2-antioxidationt/electrophile response element (ARE) dependant pathway in HaCaT human keratinocytes stably transfected with a selectable plasmid. The KeratinoSens assay is a cell-based assay with a reporter cell line to detect potential skin sensitizers by their ability to induce the Nrf2/ARE-response. The activation of the report gene under culture conditions can be detected by ONE-Glo Luciferase Assay System (Promega, Madison, WI). This cell line has been used to screen the Tox21 10K compound library to identify agonists that induce oxidative stress. The cytotoxicity of the Tox21 compound library against the KS-ARE cell line was tested in parallel by measuring the cell viability using CellTiter- Fluor assay system (Promega, Madison, WI) in the same wells.
HaCaT derived cell line KeratinoSens were dispensed at 1,500 cells/5uL/well in 1536-well white wall/solid bottom plates using a Multidrop Combi (ThermoFisher Scientific, Waltham, MA) dispenser. After the assay plates were incubated at 37 C/5% CO2 for 5 h, 23 nL of compounds dissolved in DMSO, positive controls or DMSO only was transferred to the assay plate by a pintool workstation (Kalypsys, San Diego, CA). The plates were incubated at 37 C/5% CO2 for 23 h, followed by addition of 1uL/well of CellTiter-Fluor reagent into the assay plates using a Flying Reagent Dispenser (Aurora Discovery, San Diego, CA) for cell viability readout that measures cytotoxicity. After 1 h incubation at 37 C/5% CO2 the fluorescence intensity was measured using a ViewLux (PerkinElmer, Shelton, CT) plate reader. Then 4uL/well of One-Glo were added using a Flying Reagent Dispenser. After the plates were incubated at room temperature for 30 min, the luminescence intensity in the assay plates was measured using ViewLux plate reader.

[3] = target: Gonadotropin-releasing hormone receptor (Homo sapiens) (UniProt P30968); assay: Human gonadotropin-releasing hormone receptor (GnRHR) small molecule agonists, calcium flux assay in GnRHR-HEK293 cells (AID 1920063); details: calcium flux fluorescence, agonist mode, stronger effect = higher value; at 57.6 µM (top of the series) unless noted; further: nearly all actives have a fitted effect of over 35% in size
Procedure, shortened: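 HEK293 cells stably expressing human GnRHR were dye-loaded for 1 h at 37 C. Compound was added in agonist mode and fluorescence (Ex/Em 480/540) recorded kinetically for 3 min. Fifteen concentrations, triplicates.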

[4] = target: KiSS-1 receptor (Homo sapiens) (UniProt Q969F8); assay: Human kisspeptin (KISS1R) small molecule agonists, calcium flux assay in KISS1R-HEK293 cells (AID 1920064; active means well fitted curve in the direction sought with a large enough effect in the repeat runs; an effect the other way counts as inactive or inconclusive); details: KISS1R-HEK293, calcium flux fluorescence, agonist; at 76.8 µM (top of the series) unless noted
Procedure, shortened: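 HEK293 cells stably expressing human KISS1R were loaded with calcium dye for 1 h at 37 C, then given compound; fluorescence (Ex/Em 480/540) was read kinetically for 3 min. Fifteen concentrations, triplicate.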

[5] = G protein-coupled receptor (GPCR) small molecule agonists, calcium flux assay: HEK293 wild type cell line counter screen (AID 1920065); details: HEK293 WT calcium flux, fluorescence, agonist mode; at 57.6 µM (top of the series) unless noted
Procedure, shortened: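 Wild-type HEK293 cells plated 18 h, loaded with calcium dye 1 h at 37 C, then compounds added in agonist mode (ATP as positive control). Kinetic fluorescence Ex/Em 480/540 recorded 3 min at 1 sec intervals; 15 concentrations, triplicate.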

[6] = p53 small molecule agonists, cell-based qHTS assay with human liver microsomes (AID 1963577); details: HCT-116 p53RE-bla with human liver microsomes, ratio, 16 h; at 66 µM (top of the series) unless noted;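 further: p53 response element beta-lactamase reporter cells with liver microsomes plus NADPH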
Procedure, shortened: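 In this qHTS, p53 response-element beta-lactamase cells receive test compound together with a microsome/NADPH activating system (0.5 mg/mL final each) and are incubated 16 h at 37 C before LiveBLAzer fluorescence detection.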

[7] = p53 small molecule agonists, cell-based qHTS assay with rat liver microsomes (AID 1963578); details: HCT-116 p53RE-bla, beta-lactamase ratio, 16 h; at 66 µM (top of the series) unless noted
Procedure, shortened: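 Agonist mode in p53RE-bla reporter cells, with compounds co-incubated 16 h at 37 C alongside 0.5 mg/mL rat liver microsomes and 0.5 mg/mL NADPH (final), followed by a 2 h LiveBLAzer detection step.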

[8] = p53 small molecule agonists, cell-based qHTS assay with human liver microsomes: qHTS cell viability counter screen (AID 1963579); details: p53RE-bla HCT-116 viability, ATP luminescence, 16 h, HLM; at 66 µM (top of the series) unless noted; further: nearly all actives have a fitted effect of over 45% in size
Procedure, shortened: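 Metabolically activated exposure: compounds, human liver microsomes and NADPH (0.5 mg/mL final apiece) were added to p53RE-bla cells seeded 5 h earlier, left 16 h at 37 C, and then assessed for viability by CellTiter-Glo luminescence.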

[9] = p53 small molecule agonists, cell-based qHTS assay with rat liver microsomes: qHTS cell viability counter screen (AID 1963580); details: p53RE-bla HCT-116 + rat microsomes, ATP viability, 16 h; at 66 µM (top of the series) unless noted; further: nearly all actives have a fitted effect of over 45% in size
Procedure, shortened: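 Intracellular ATP, by CellTiter-Glo luminescence, defines viability. HCT-116 p53RE-bla cells, 4,000 per well, were compound-treated in the presence of rat liver microsomes and NADPH for 16 h at 37 C.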

[10] = p53 small molecule agonists, cell-based qHTS assay: qHTS cell viability counter screen (AID 1963581); details: p53RE-bla HCT-116 viability, ATP luminescence, 16 h; at 66 µM (top of the series) unless noted; further: nearly all actives have a fitted effect of over 45% in size
Procedure, shortened: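 p53RE-bla HCT-116 cells, compounds added 5 h after plating and incubated 16 h at 37 C. Cytotoxicity measured in the same wells as intracellular ATP by CellTiter-Glo luminescence after 30 min at room temperature.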

[11] = p53 small molecule agonists, cell-based qHTS assay (AID 1963582; active means well fitted activation curve with a large enough effect in the signal ratio in the repeat runs, not every such curve was filed as active; the % refers to the signal ratio); details: HCT-116 p53RE-bla reporter, beta-lactamase FRET ratio, 16 h; at 66 µM (top of the series) unless noted
Procedure, shortened: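 p53RE-bla reporter cells, compounds added in DMSO after 5 h plating, incubated 16 h at 37 C. Beta-lactamase read via 2 h room-temperature LiveBLAzer B/G FRET substrate, fluorescence intensity.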

[12] = target: 5-hydroxytryptamine receptor 2A (Homo sapiens) (UniProt P28223); assay: 5-hydroxytryptamine receptor 2A (HTR2A) small molecule antagonists, cell-based qHTS assay (AID 1963586); details: HTR2A-CHO cells, DOI-induced calcium flux, fluorescence; at 61.5 µM (top of the series) unless noted; further: nearly all actives have a fitted effect of over 45% in size
Procedure, shortened: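 Antagonist-mode intracellular calcium assay: DOI (4 nM) added after 5 min compound pre-incubation at room temperature to dye-loaded HTR2A-CHO cells. Fluorescence followed for 3 min, sampled every second.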

[13] = target: 5-hydroxytryptamine receptor 2A (Homo sapiens) (UniProt P28223); assay: 5-hydroxytryptamine receptor 2A (HTR2A) small molecule agonists, cell-based qHTS assay (AID 1963587); details: HTR2A-CHO cells, calcium flux fluorescence, agonist mode; at 76.8 µM (top of the series) unless noted; further: nearly all actives have a fitted effect of over 30% in size
Procedure, shortened: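 Kinetic calcium-flux fluorescence (2 min, 1 sec intervals) after compound addition in agonist mode. HTR2A-CHO cells were cultured 18 h, then dye-loaded 1 h at 37 C.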

[14] = target: Muscarinic acetylcholine receptor M1 (Homo sapiens) (UniProt P11229); assay: Cholinergic receptor muscarinic 1 (CHRM1) small molecule antagonists, cell-based qHTS assay (AID 1963588); details: CHRM1-CHO antagonist mode, calcium flux fluorescence; at 61.5 µM (top of the series) unless noted; further: nearly all actives have a fitted effect of over 40% in size
Procedure, shortened: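 CHRM1-CHO calcium-flux assay, antagonist mode. Cells were seeded 18 h, dye-loaded 1 h at 37 C and given compound for 5 min at RT, then acetylcholine was added at 50nM. FDSS fluorescence was read 3 min; 15 concentrations, three runs.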

[15] = target: Muscarinic acetylcholine receptor M1 (Homo sapiens) (UniProt P11229); assay: Cholinergic receptor muscarinic 1 (CHRM1) small molecule agonists, cell-based qHTS assay (AID 1963589); details: CHRM1-CHO cells, agonist mode, calcium flux fluorescence; at 76.8 µM (top of the series) unless noted; further: nearly all actives have a fitted effect of over 35% in size
Procedure, shortened: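 CHO cells stably expressing human CHRM1 were loaded with calcium dye for 1 h at 37 C, then compound was added in agonist mode. Intracellular calcium fluorescence was followed kinetically at 1 s intervals. Fifteen concentrations were tested in three independent runs.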

[16] = cAMP Responsive Elements (CRE) small molecule agonists, cell-based qHTS assay (AID 1963590); details: CRE-bla HEK293T, beta-lactamase FRET ratio, 3 h; at 92.4 µM (top of the series) unless noted
Procedure, shortened: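 CRE-bla HEK 293T cells, 2,000/well in DMEM with 10% dialyzed FBS and 25 mM HEPES, pre-incubated 18 h at 37 C, then exposed to compound 3 h at 37 C. Beta-lactamase reporter read with LiveBLAzer B/G FRET substrate after 2 h at room temperature.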

[17] = cAMP Responsive Elements (CRE) small molecule antagonists, cell-based qHTS assay (AID 1963591; active means well fitted inhibition curve with a large enough effect in the signal ratio in the repeat runs, not every such curve was filed as active; the % refers to the signal ratio); details: CRE-bla HEK293T, beta-lactamase FRET ratio; at 92.4 µM (top of the series) unless noted
Procedure, shortened: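 CRE-bla HEK293T cells plated 18 h, then given compound plus NKH477 at 0.25 uM final for 3 h at 37C. Beta-lactamase reporter read with LiveBLAzer B/G FRET substrate after 2 h at room temperature.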

[18] = target: Beta-2 adrenergic receptor (Homo sapiens) (UniProt P07550); assay: Adrenergic beta2 receptor (ADRB2) small molecule antagonists, cell-based qHTS assay (AID 1963592); details: CHO-ADRB2 cells, isoproterenol-stimulated cAMP HTRF ratio, 0.5 h; at 92.4 µM (top of the series) unless noted; further: nearly all actives have a fitted effect of over 50% in size
Procedure, shortened: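 Cells (CHO, stable ADRB2 overexpression) incubated 18-20hr at 37C; compounds added from DMSO; agonist mix (1nM isoproterenol, 100uM IBMX, 25uM Ro-20-1724) added; 0.5hr RT; d2-cAMP and anti-cAMP-cryptate added; 1hr RT; 665/615 nm read.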

[19] = target: Beta-2 adrenergic receptor (Homo sapiens) (UniProt P07550); assay: Adrenergic beta2 receptor (ADRB2) small molecule agonists, cell-based qHTS assay (AID 1963593); details: CHO-ADRB2 cells, cAMP HTRF, 30 min; at 92.4 µM (top of the series) unless noted;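 further: CHO cells stably overexpressing human ADRB2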
Procedure, shortened: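 CHO cells stably over-expressing ADRB2 were plated overnight at 37C, then dosed with compounds plus a stimulation mix containing 100uM IBMX and 25uM Ro-20-1724 for 0.5hr at room temperature. cAMP was measured by HTRF competition, 1hr.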

[20] = target: D(2) dopamine receptor (Homo sapiens) (UniProt P14416); assay: Dopamine D2 receptor (DRD2) small molecule agonists, cell-based qHTS assay (AID 1963594); details: HEK293-DRD2 cAMP HTRF, agonist mode, 30 min; at 92.4 µM (top of the series) unless noted; further: nearly all actives have a fitted effect of over 35% in size
Procedure, shortened: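 cAMP accumulation in DRD2-HEK293 cells measured by HTRF after 1 h detection; compounds added 10 min before NKH477 (200nM […]) forskolin-analogue stimulation, 30 min at room temperature, with Ro20-1724 present at 0.1 mM final.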

[21] = target: D(2) dopamine receptor (Homo sapiens) (UniProt P14416); assay: Dopamine D2 receptor (DRD2) small molecule antagonists, cell-based qHTS assay (AID 1963595; active means well fitted inhibition curve with a large enough effect in the signal ratio in the repeat runs, with a control signal flat; the % refers to the signal ratio); details: HEK293-DRD2 cAMP HTRF antagonist mode; at 92.4 µM (top of the series) unless noted
Procedure, shortened: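 Readout: HTRF cAMP, cAMP-d2 competing with cellular cAMP for anti-cAMP cryptate, read after 1 h. Cells: DRD2-HEK293. Conditions: 0.1 mM Ro20-1724, 12 nM quinpirole, 200 nM NKH477, 30 min RT.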
On the % scale 0 is the no-effect control and ±100 the full control effect.

ClCCOP(OCCCl)OCCCl
inactive: activity change, negative = cytotoxicity [1] 0.125% and -1.13% | activity, positive = activation [2] 6.08% and 2.42% | activity change [3] 0.364% and -0.0565% | activation [4] 1.92% and -1.44% | activation [5] -0.0032% and -0.0985% | activation [6] 2.23% and 0.182% | activation [7] 0.221% and -0.726% | activity change, negative = cytotoxicity [8] -2.41% and 5.47% | activity change, negative = cytotoxicity [9] -11.2% and 3.65% | activity change, negative = cytotoxicity [10] -0.412% and -15.1% | activation [11] 0.296% and -1.65% | activity, negative = inhibition [12] 1.73% and 1.28% | activation [13] -0.629% and 0.874% | activity, negative = inhibition [14] -3.73% and -2.62% | activation [15] -0.126% and 0.547% | activation [16] -0.77% and 0.311% | activity change, negative = inhibition [17] 0.648% and 1.06% | activity change, negative = inhibition [18] 1.16% and 9.55% | activation [19] 20.8% | activation [20] 5.58% and 0.402% | activity change, negative = inhibition [21] -0.833% and 13.4%
